Laboratory results as given in patent US20110257233A1, “BENZOISOTHIAZOLONES AS INHIBITORS OF PHOSPHOMANNOSE ISOMERASE” (Sanford-Burnham Medical Research Institute, priority 2010, published 2011).

Columns and labels:
[1] = biological target: T1, phosphomannomutase 2 (PMM) (Homo sapiens, UniProt O15305); test: PMM enzyme inhibition assay; assay type: biochemical
T1 sequence (O15305 1-246): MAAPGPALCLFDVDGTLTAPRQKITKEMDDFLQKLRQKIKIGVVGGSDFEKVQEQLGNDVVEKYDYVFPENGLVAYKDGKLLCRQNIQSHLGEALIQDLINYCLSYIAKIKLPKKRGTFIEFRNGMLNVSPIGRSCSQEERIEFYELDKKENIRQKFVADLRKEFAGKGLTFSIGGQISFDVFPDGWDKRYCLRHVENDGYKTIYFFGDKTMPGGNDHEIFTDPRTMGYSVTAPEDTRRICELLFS

[2] = tested on: protein glycosylation (mannose incorporated in proteins); test: Cellular assay: 3H-mannose incorporated in proteins vs glycolysis; assay type: cell-based
Method: A cellular assay was developed and utilized to provide proof-of-concept for the potential of the optimized PMI inhibitors as CDG therapeutics. […] Briefly. cells were preincubated with inhibitors and labeled with 3H-Mannose and 35S-Met/Cys. After washing and lysis, 3H- and 35S amounts were determined in the proteins.

[3] = biological target: T2, phosphomannose isomerase (PMI) (Homo sapiens, UniProt P34949); test: PMI enzyme inhibition assay; assay type: biochemical; details: mean of at least three determinations
T2 sequence (P34949 1-423): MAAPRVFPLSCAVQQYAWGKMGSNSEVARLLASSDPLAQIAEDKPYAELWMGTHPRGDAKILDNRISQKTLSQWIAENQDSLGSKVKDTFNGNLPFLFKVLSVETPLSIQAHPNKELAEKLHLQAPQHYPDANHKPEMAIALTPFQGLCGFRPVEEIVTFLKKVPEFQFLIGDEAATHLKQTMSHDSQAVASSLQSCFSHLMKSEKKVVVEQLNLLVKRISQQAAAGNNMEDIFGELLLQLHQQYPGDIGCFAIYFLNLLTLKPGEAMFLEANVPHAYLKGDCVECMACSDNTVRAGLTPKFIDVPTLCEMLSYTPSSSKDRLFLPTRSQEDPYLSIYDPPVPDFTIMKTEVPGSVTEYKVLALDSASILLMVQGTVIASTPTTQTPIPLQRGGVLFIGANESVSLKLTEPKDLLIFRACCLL

| SMILES | PMM inhibition ([1]; tested up to 20 μM) | fold increase in the amount of mannose incorporated in proteins vs glycolysis [2] | fold increase in the amount of mannose incorporated in proteins vs glycolysis ([2]; 25.0 μM) | fold increase in the amount of mannose incorporated in proteins vs glycolysis ([2]; 50 μM) | IC50 [3] | IC50 ([1]; mean of at least three determinations) |
| --- | --- | --- | --- | --- | --- | --- |
| O=c1c2ccccc2sn1-c1ccccc1 [Compound 1, 2-Phenyl-2-hydrobenzo[d]isothiazol-3-one] | completely devoid of PMM inhibition; also recorded: inactive | – | – | – | – | – |
| O=c1c2ccccc2sn1-c1ccc(Cl)cc1 [Compound 8, 2-(4-Chlorophenyl)-2-hydrobenzo[d]isothiazol-3-one] | – | 11.6 fold | 17.3 fold | 6.1 fold | 1900 nM | – |
| O=c1c2ccccc2[se]n1-c1ccccc1 [Ebselen, 2-phenyl-1,2-benzisoselenazol-3(2H)-one, reference compound] | – | – | – | – | 190 nM | 670 nM |

“Also recorded” adds a separate entry of the source. Where two headings read alike, the source gives them in different places.
